Source: publication PMC3064429 (Bioorganic & medicinal chemistry, 2011)

The chains behind the UniProt entries cited, without tags or fusion partners. Residues count along the entry.
UniProt Q60492, whole entry: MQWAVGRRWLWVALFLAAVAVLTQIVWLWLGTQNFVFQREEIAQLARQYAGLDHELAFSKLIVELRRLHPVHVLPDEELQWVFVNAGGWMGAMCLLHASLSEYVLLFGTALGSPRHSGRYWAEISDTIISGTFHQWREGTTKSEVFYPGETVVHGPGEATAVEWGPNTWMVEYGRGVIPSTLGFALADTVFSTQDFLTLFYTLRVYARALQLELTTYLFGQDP
UniProt H0V073, 1-176: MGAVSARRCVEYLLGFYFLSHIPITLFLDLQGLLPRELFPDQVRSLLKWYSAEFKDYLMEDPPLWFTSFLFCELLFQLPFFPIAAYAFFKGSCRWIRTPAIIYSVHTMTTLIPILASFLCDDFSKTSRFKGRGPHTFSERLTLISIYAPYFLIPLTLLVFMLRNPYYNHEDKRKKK

Experiments:
[1] = molecular target: σ1 receptor (Cavia porcellus, UniProt Q60492); experiment: Competition binding assay at σ1 receptors with [3H]; settings: read-out: Ki (nM) σ1; [3H](+)-PTZ, guinea pig brain membranes; mean ± SEM; n = 4
[2] = molecular target: σ2 receptor (Cavia porcellus, UniProt H0V073); experiment: Competition binding assay at σ2 receptors with [3H]DTG / 500 nM; design: species or system guinea pig; settings: ratio of Ki values

5-bromo-N-(4-((3,4-dimethoxyphenethyl)(methyl)amino)butyl)-2,3-dimethoxybenzamide [Compound 9]
Ki [1]: 583 ± 28 nM
Selectivity Ki σ1 / Ki σ2 [2]: 0.27
